Measured values taken from patent EP4512427A1, “ANTIBODY-DRUG CONJUGATES BASED ON MOLECULAR GLUE DEGRADERS AND USES THEREOF” (Mablink Bioscience, priority 2023, dated 2025).

What was measured:
Type in all cases: cell-based, human
[1] = tested on: MDA-MB-231 HER2-negative cell line; test: In vitro bystander cell killing assay, single culture control; settings: MDA-MB-231 alone, 25 nM ADC, 6 days
Method: (§1) Capacity of trastuzumab (anti-HER2)-based ADC incorporating the lead compound 2384 to exert in vitro bystander killing properties was assessed in a co-culture cell killing assay. BT-474 (HER2-positive) and MDA-MB-231 (HER2-negative) cells were seeded in single or co-culture (2:1 ratio respectively) in 96-well plate at final density of 10 000 cells per well and incubated overnight at 37 °C under a 5% CO2 atmosphere. Cells were then treated with 25 nM of Enhertu® (positive control ADC know to exert bystander cell killing) or TRA-VA-2384 for 6 days. Cells were then collected by trypsinization and transferred into a round-bottom 96-well plate suitable for high-throughput flow cytometry. Cells were washed three times with PBS, resuspended in 50 µL PBS, and incubated with an anti-HER2 APC-conjugated antibody (BD Bioscience, Cat#340554) for 30 min at 4°C in the dark. Analysis was performed using a BD Fortessa flow cytometer controlled by BD FACSDiva software (BD Bioscience) and data were analyzed using FlowJo software (BD Bioscience).

[2] = tested on: BT-474 HER2-positive cell line; test: as above; settings: BT-474 alone, 25 nM ADC, 6 days
Method: as §1

[3] = tested on: BT-474 (HER2-positive) and MDA-MB-231 (HER2-negative) cells; test: In vitro bystander cell killing assay, co-culture; settings: co-culture 2:1, 25 nM ADC, 6 days
Method: as §1

## Enhertu
[1]
  cytotoxicity in single culture: not non-specifically cytotoxic
[2]
  cytotoxicity in single culture: cytotoxic to the BT-474 HER2-positive cell line
[3]
  bystander cell killing: able to exert bystander cell killing
